# Yeast mating assay 2: variants of the scFv Ab-95

Reference: Engelhart et al. 2022, doi:10.1038/s41597-022-01779-4. File: FLAb, binding data.

Target: peptide PDVDLGDISGINAS, taken from heptad repeat 2 (HR2) of SARS-CoV-2 spike.

Parent: Ab-95, a human scFv built as VH, the linker GGGGSGGGGSGGGGS, VL. Only the CDRs of the light chain vary.
VH: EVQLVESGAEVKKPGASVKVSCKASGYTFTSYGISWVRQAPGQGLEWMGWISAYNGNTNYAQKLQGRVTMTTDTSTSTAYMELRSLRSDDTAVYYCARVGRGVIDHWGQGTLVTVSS
VL: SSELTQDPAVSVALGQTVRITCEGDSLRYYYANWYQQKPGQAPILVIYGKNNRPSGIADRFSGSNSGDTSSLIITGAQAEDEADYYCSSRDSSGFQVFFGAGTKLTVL

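The parent was found by panning a naive human phage display library on the peptide. The library (AAYL52) carries one to three amino acid substitutions per variant, with no insertions or deletions. In AlphaSeq, yeast of one mating type display the scFv and yeast of the other type display the target. Mating (16 h, 30 °C) was followed by selection of diploids and sequencing of their barcodes. The ratio of observed to expected reads was calibrated, replicate by replicate, on BCL2-family standards whose Kd was known from biolayer interferometry. Mating was done three times.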

Variants are written as CDR1, CDR2 and CDR3 of the light chain (limits as in the source). Parent: EGDSLRYYYAN, GKNNRPS, SSRDSSGFQVF.
This list gathers variants with a substitution at S55 (VL, numbered from residue 1).
Kd is apparent (estimated from mating counts) and averaged on the log scale over replicates with a signal. Smaller is tighter.
A pair that was not seen in any replicate is written "no signal"; this usually means weak binding, but a binder can also be missed.
Three control strains display no target. For library AAYL52, 28% of the pairings with them gave a signal, with a median of 8.2 µM and one signal in twenty below 800 nM, so weak values seen in few replicates may be background.
For reference, the parent read 200 nM as the reference entry and 180 nM as a member of this library.

* YGDSLRYYYAN / GKNNRPR / SSRDSLGFQVF: 1.5 µM (3 of 3 replicates)
* EGDSLRYYYAN / GKNNRPT / SGRDSSGLQVF: 350 nM (3 of 3 replicates)
* DGDSLRYYYAN / FKNNRPI / SSRDSSGFQVF: 16 µM (2 of 3 replicates)
* EGDSLRYYYAN / LKNNRPP / SSRDSSGFQVW: 320 nM (1 of 3 replicates)
* EGDSLRYYYAN / GKWNRPH / SSRDSSGFQVQ: 1.4 µM (3 of 3 replicates)
* EGDSLRYYYAN / GKNNRPC / SCGDSSGFQVF: 2.4 µM (3 of 3 replicates)
* EGDSLRYYYAN / VKNNRPP / SSRDSSGDQVF: 12 µM (3 of 3 replicates)
* EGDSLRYYYAN / EKNNRPD / SSRDSSGFQNF: 19 µM (2 of 3 replicates)
* EGDSLRYYYAN / GKNIRPQ / SSRDSSGFQVF: 83 nM (3 of 3 replicates)
* EGDSLRYYYPN / GKNNRPG / SSRDSSEFQVF: 340 nM (1 of 3 replicates)
* EGDSLRYYYAN / GKNNRPE / ISPDSSGFQVF: 15 µM (1 of 3 replicates)
* EGDSLRYYYAN / GKCNNPI / SSRDSSGFQVF: 8.6 µM (2 of 3 replicates)
* EGDSLRYYYAN / GMNNRPG / SSRFSSGFQVF: 2.6 µM (3 of 3 replicates)
* EGDSLRYYYRN / GKNNRPF / SSRDSSGFQVF: 11 µM (3 of 3 replicates)
* EGDSLRYYYAN / GKNYRPE / SSRDSSGFQVF: 100 nM (3 of 3 replicates)
* EGDSLRYYYSN / GKNNRPY / SSRDSIGFQVF: 4.4 µM (2 of 3 replicates)
* EGDSLRYYYAN / GKNNRPI / SSRDSSGFQVF: 240 nM (3 of 3 replicates)
* EGDSHRYYYTN / GKNNRPV / SSRDSSGFQVF: 160 nM (3 of 3 replicates)
* EGDSLRWYYAN / GKNNRPQ / ESRDSSGFQVF: 110 nM (3 of 3 replicates)
* EGDGLRYYYAN / GWNNRPC / SSRDSSGFQVF: 5.2 µM (1 of 3 replicates)
* EGDSVRYYYAN / GKNNRPL / SSRDSSMFQVF: 2.1 µM (1 of 3 replicates)
* EGDSLRYYYAN / GKNNRPK / CSRDSSGFFVF: 140 nM (3 of 3 replicates)
* EGTSLRYYYAN / GYNNRPQ / SSRDSSGFQVF: 1.7 µM (3 of 3 replicates)
* EGDWLRYYYAN / GKNNRPP / QSRDSSGFQVF: 16 µM (1 of 3 replicates)
* EGTSLRYYYAN / GKNNRPD / SSRDSSGFQVF: 53 nM (3 of 3 replicates)
* EGDSLRYYYAN / GKNNRPK / SSRDSSGFTKF: 4.3 µM (3 of 3 replicates)
* EGDSLRYYYQN / GKNNRPP / SSRDSSGFQLF: 210 µM (2 of 3 replicates)
* EGDSLTYYYAN / GKNNRPA / SSRDSSGFQVR: 250 nM (3 of 3 replicates)
* EGDSLRYYYTN / GKNSRPH / SSRDSSGFQVF: 410 nM (3 of 3 replicates)
* LGDSLRYYYAV / GKNNRPA / SSRDSSGFQVF: 240 nM (3 of 3 replicates)
* EGDSLKYYYAN / GCNNRPY / SSRDSSGFQVF: no signal (0 of 3 replicates)
* EGDSLRYYYAN / NKNERPW / SSRDSSGFQVF: 230 nM (3 of 3 replicates)
* EGDHLRYYYAN / GKNNYPL / SSRDSSGFQVF: 54 µM (3 of 3 replicates)
* EGDSLRYYYAN / GKNNRPR / SSRDRSPFQVF: 9.7 µM (1 of 3 replicates)
* EGDSLRYYYAN / GKNNRIE / SSRDSSPFQVF: 520 nM (3 of 3 replicates)
* EGDSLEYYYAN / GSNNRPW / SSRDSSGFQVF: 990 nM (3 of 3 replicates)
* EGDSLRYYYAN / GQNNRPC / KSRDSSGFQVF: 22 µM (1 of 3 replicates)
* EGDSLRYYYAN / GWNNRPM / SSRDSSGFQRF: 4.7 µM (2 of 3 replicates)
* EDDSLRYYYAN / GKNNRPQ / SSRDASGFQVF: 1.7 µM (2 of 3 replicates)
* EGDSLRYYYAN / GKNNRPW / SSRDSPGFPVF: 6.2 µM (3 of 3 replicates)
* EGDSLRYYYMN / GKNNRPN / SSRDSSGFIVF: 7.6 µM (2 of 3 replicates)
* EGASLRYYYAN / RKNNRPN / SSRDSSGFQVF: 56 µM (1 of 3 replicates)
* EGDDLNYYYAN / GKNNRPI / SSRDSSGFQVF: 260 nM (3 of 3 replicates)
* EGDSLRYYYAN / GKNNRPW / SSRDSWGFQVF: 26 µM (1 of 3 replicates)
* EADSLRYYYAN / YKNNRPY / SSRDSSGFQVF: no signal (0 of 3 replicates)
* EGDSLRYYYAN / TKANRPC / SSRDSSGFQVF: no signal (0 of 3 replicates)
* EGDSLTYYYWN / GKNNRPM / SSRDSSGFQVF: 85 µM (2 of 3 replicates)
* EGDSLRYYYVN / GKNNRPM / NSRDSSGFQVF: 1.7 µM (3 of 3 replicates)

The last 4 entries again:

- EADSLRYYYAN / YKNNRPY / SSRDSSGFQVF -> no signal (0 of 3 replicates)
- EGDSLRYYYAN / TKANRPC / SSRDSSGFQVF -> no signal (0 of 3 replicates)
- EGDSLTYYYWN / GKNNRPM / SSRDSSGFQVF -> 85 µM (2 of 3 replicates)
- EGDSLRYYYVN / GKNNRPM / NSRDSSGFQVF -> 1.7 µM (3 of 3 replicates)